pIC50: −log10 of the molar value.
Target: Cystathionine gamma-lyase (Homo sapiens, UniProt P32929)
Experiment: In Vitro Assay: Test compounds (from DMSO stock solutions) were added to (final concentrations) 20 ug/ml enzyme solution (human, mouse or rat recombinant CSE) plus 50 uM PLP in assay buffer (100 mM potassium phosphate pH 7.6) in 96 well plates in total volume of 190 ul. Plates were incubated for 30 minutes at room temperature before the addition of 10 ul of 200 mM (20× final in assay buffer) DL-Ho

Amino acid sequences for entries named in this document (tags omitted).
UniProt P32929, whole entry, looked up: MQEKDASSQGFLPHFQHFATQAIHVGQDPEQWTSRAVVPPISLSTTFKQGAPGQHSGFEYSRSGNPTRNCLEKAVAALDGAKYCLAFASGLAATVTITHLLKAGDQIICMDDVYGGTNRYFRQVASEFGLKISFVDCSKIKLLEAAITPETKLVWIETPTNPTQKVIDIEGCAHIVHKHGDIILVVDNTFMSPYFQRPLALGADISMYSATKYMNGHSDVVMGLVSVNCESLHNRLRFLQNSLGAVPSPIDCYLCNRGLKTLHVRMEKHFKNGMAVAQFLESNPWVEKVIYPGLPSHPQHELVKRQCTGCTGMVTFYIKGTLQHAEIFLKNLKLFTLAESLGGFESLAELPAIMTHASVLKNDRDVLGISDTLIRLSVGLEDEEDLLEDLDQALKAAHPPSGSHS

Q: With `NN(CCCc1nnn[nH]1)c1nnn[nH]1` as the compound, how does the pIC50 read?
A: ≤ 5.00
